Results: ChEMBL document CHEMBL1152236 (Bioorg Med Chem, 2008)

Target: Carbonic anhydrase 2 (Homo sapiens, UniProt P00918)
Assay: Inhibition of human carbonic anhydrase 2 esterase activity by non-competitive Lineweaver-Burke plot

CC(=O)Oc1ccccc1C(=O)O [ASPIRIN]
Ki: 3.66 mM
